Assay results taken from ChEMBL document CHEMBL1133341, “ORL1 receptor ligands: structure-activity relationships of 8-cycloalkyl-1-phenyl-1,3,8-triaza-spiro[4.5]decan-4-ones” (Bioorg Med Chem Lett, 2000).

Experiments:
Nociceptin receptor = Nociceptin receptor (Rattus norvegicus, UniProt P35370); experiment: Inhibition against binding of radioligand [leucyl-3H]-OFQ to membrane of human embryonic kidney 293 cells overexpressing rat Opioid receptor like 1; details: hek293
[1] = target: Kappa-type opioid receptor (Rattus norvegicus, UniProt P34975); experiment: Inhibition against binding of radioligand [N-allyl-2-3-3H]-naloxone to membrane of baby hamster kidney cells infected with forest virus encoding the cDNAs for rat Opioid receptor kappa 1
Mu-type opioid receptor = Mu-type opioid receptor (Rattus norvegicus, UniProt P33535); experiment: Inhibition against binding of radioligand [N-allyl-2-3-3H]-naloxone to membrane of baby hamster kidney cells infected with forest virus encoding the cDNAs for rat Opioid receptor mu 1
[2] = target: Delta-type opioid receptor (Rattus norvegicus, UniProt P33533); experiment: Inhibition against binding of radioligand [Ile5,6-3H]-deltorphin to membrane from baby hamster kidney cells infected with forest virus encoding the cDNAs for rat Opioid receptor delta 1

## O=C1NCN(c2ccccc2)C12CCN(C1CCCCCC1)CC2
Nociceptin receptor
  Ki: 0.0047 µM
[1]
  Ki: 0.012 µM
Mu-type opioid receptor
  Ki: 0.051 µM
[2]
  Ki: > 2 µM

## O=C1NCN(c2ccccc2)C12CCN(C1CCCCC1)CC2
Nociceptin receptor
  Ki: 0.025 µM
[1]
  Ki: 0.1 µM
Mu-type opioid receptor
  Ki: 0.158 µM

## C[C@H]1CC[C@H](N2CCC3(CC2)C(=O)NCN3c2ccccc2)CC1
Nociceptin receptor
  Ki: 0.041 µM

## C[C@H]1CC[C@@H](N2CCC3(CC2)C(=O)NCN3c2ccccc2)CC1
Nociceptin receptor
  Ki: 0.0071 µM
[1]
  Ki: 0.057 µM
Mu-type opioid receptor
  Ki: 0.064 µM
[2]
  Ki: > 2 µM
